Only a part is listed here, and it is no random draw. The source made the active and inactive calls. No stated cut-off is given here; in the data, active means inhibition above about 17%; inactive means the rest.
Target: Neuropeptide Y receptor type 2 (Homo sapiens) (UniProt P49146)
Assay: blockers of human neuropeptide Y Y2 receptor – cell-based, primary screen (AID 793);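 further: 0% = vehicle with agonist challenge and 100% = reference antagonist with challenge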
Details: NPY-Y2 expressing cells, antagonist mode; at 2.7 µM; hits give high values

Sequences of proteins named here, by UniProt entry; tags and fusion partners are left off.
UniProt P49146, whole entry: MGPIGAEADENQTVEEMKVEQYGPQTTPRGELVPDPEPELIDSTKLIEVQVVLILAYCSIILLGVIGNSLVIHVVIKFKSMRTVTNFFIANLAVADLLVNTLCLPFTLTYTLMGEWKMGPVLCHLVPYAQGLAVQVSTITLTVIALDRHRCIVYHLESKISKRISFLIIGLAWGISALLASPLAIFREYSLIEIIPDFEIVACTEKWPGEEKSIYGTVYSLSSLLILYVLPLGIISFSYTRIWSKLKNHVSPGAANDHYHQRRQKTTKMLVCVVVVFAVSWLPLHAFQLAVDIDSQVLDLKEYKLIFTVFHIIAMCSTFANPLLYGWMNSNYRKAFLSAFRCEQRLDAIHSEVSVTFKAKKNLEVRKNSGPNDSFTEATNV

SMILES	inhibition
CC(C)(C)c1ccc(OP(C)(=O)Nc2ccc(SC(F)(F)F)cc2)cc1 (stereo not given)	inactive: -2.53%
CCOC(=O)c1ccc(NP(C)(=O)Oc2ccccc2)cc1 (stereo not given)	inactive: 1.41%
COc1ccccc1OP(C)(=O)Nc1ccc(C)cc1 (stereo not given)	inactive: 1.54%
Cc1ccc(NP(C)(=O)Oc2ccccc2)c(C)c1 (stereo not given)	inactive: 2.5%
COc1ccc(OP(C)(=O)Nc2cccc(F)c2)cc1 (stereo not given)	inactive: 0.32%
Cc1cccc(C)c1OP(C)(=O)Nc1ccc(SC(F)(F)F)cc1 (stereo not given)	inactive: -1%
CP(=O)(NC(=O)Nc1ccccc1)Oc1ccccc1 (stereo not given)	inactive: 0.74%
Cc1cc(C)cc(OP(C)(=O)Nc2ccc(SC(F)(F)F)cc2)c1 (stereo not given)	inactive: 1.42%
CCOP(C)(=S)SCC(=O)NC(C)C(=O)O (stereo not given)	inactive: 1.31%
CCOC(=O)c1ccc(NP(C)(=O)Oc2ccc(OC)cc2)cc1 (stereo not given)	inactive: 2.81%
CP(=O)(Nc1ccccn1)Oc1ccc(Cl)cc1 (stereo not given)	inactive: 0.46%
CP(=S)(Nn1cnnc1)Oc1ccccc1 (stereo not given)	inactive: 4.01%
CP(=O)(Nc1ccccc1Br)Oc1ccccc1 (stereo not given)	inactive: 3.25%
CN1CCCCC1COC(=O)C1(O)c2ccccc2CCc2ccccc21 (stereo not given)	inactive: 7.28%
COc1ccccc1OP(C)(=O)Nc1c(C)cccc1C (stereo not given)	inactive: -2.19%
CP(=O)(Nc1ccc(SC(F)(F)F)cc1)Oc1ccccc1 (stereo not given)	inactive: -2.63%
Cc1nc2ccc3ccccc3c2s1.O=[N+]([O-])c1cc([N+](=O)[O-])c(O)c([N+](=O)[O-])c1	inactive: 5.94%
Cc1cc(C)cc(OP(C)(=O)Nc2ccc(C)cc2C)c1 (stereo not given)	inactive: 2.7%
CCOC(=O)c1ccc(NP(C)(=O)Oc2cc(C)cc(C)c2)cc1 (stereo not given)	inactive: -0.79%
Cc1cc(C)cc(OP(C)(=O)Nc2ccccn2)c1 (stereo not given)	inactive: 0.04%
Cc1ccc(C)c(NP(C)(=O)Oc2ccccc2)c1 (stereo not given)	inactive: 1.61%
CC1=NCCc2c1[nH]c1ccccc21.O=[N+]([O-])c1cc([N+](=O)[O-])c(O)c([N+](=O)[O-])c1	inactive: 6.18%
CCOC(=O)c1ccc(NP(C)(=O)Oc2ccc(F)cc2)cc1 (stereo not given)	inactive: 1.34%
CCN(CC)CCCOC(=O)C(O)(c1ccccc1)C1CCCCC1 (stereo not given)	inactive: 6.85%
CP(=O)(Nc1ccccc1)Oc1ccc(F)cc1 (stereo not given)	inactive: 0.46%

SMILES	inhibition
CC(C)c1ccc(OP(C)(=O)Nc2ccc(SC(F)(F)F)cc2)cc1 (stereo not given)	inactive: -0.33%
CP(=O)(Nc1ccccc1F)Oc1ccccc1 (stereo not given)	inactive: 0.73%
O=C(OCCN1CCN(CCOCc2ccccc2)CC1)C(O)(c1ccccc1)c1ccccc1	inactive: 3.48%
CCOP(C)(=S)SCC(=O)NC(C)(CC)C(=O)O (stereo not given)	inactive: -0.54%
CP(=O)(Nc1ccc2c(c1)OCCO2)Oc1ccccc1 (stereo not given)	inactive: 1.25%
Cc1ccccc1NP(C)(=O)Nc1ccccc1C	inactive: 2.02%
COc1ccc(OP(C)(=O)Nc2cccc(Br)c2)cc1 (stereo not given)	inactive: 0.53%
CN(C)CCOC(=O)C(O)(c1ccccc1)C1CCCCC1 (stereo not given)	inactive: -0.69%
CP(=O)(OC12CC3CC(CC(C3)C1)C2)OC12CC3CC(CC(C3)C1)C2	inactive: 1.59%
CCOC(=O)c1ccc(NP(C)(=O)Oc2ccc(Cl)cc2)cc1 (stereo not given)	inactive: 0.87%
CCN(CC)CC(O)COC(=O)C(O)(c1ccccc1)C1CCCCC1 (stereo not given)	inactive: 5.71%
COc1ccc(OP(C)(=O)Nc2ccc(Br)cc2)cc1 (stereo not given)	inactive: -0.81%
CP(=O)(Oc1ccccc1)N1CCOC1=O (stereo not given)	inactive: 2.05%
COc1ccccc1OP(C)(=O)Nc1c(C)n(C)n(-c2ccccc2)c1=O (stereo not given)	inactive: 2.87%
CP(=O)(Nc1ccc(Cl)cc1)Oc1ccc(F)cc1 (stereo not given)	inactive: -1.39%
CC(C)(C)c1ccc(OP(C)(=O)O)cc1	inactive: 2.22%
CN(C)CCOC(=O)C(O)(c1ccccc1)C1CCCC1 (stereo not given)	inactive: -2%
COc1ccc(OP(C)(=O)Nc2ccccn2)cc1 (stereo not given)	inactive: 3.2%
Cc1c(NP(C)(=O)Oc2ccc(C(C)C)cc2)c(=O)n(-c2ccccc2)n1C (stereo not given)	inactive: 0.62%
CCc1ccc(OP(C)(=O)O)cc1	inactive: -0.32%
CP(=O)(Nc1ccccn1)Oc1ccccc1 (stereo not given)	inactive: 2.79%
COc1ccccc1OP(C)(=O)Nc1ccc(C)cc1C (stereo not given)	inactive: 2.05%
COc1ccc(OP(C)(=O)Nc2ccccc2Br)cc1 (stereo not given)	inactive: 1.38%
COc1ccccc1OP(C)(=O)Nc1ccc(C)c(C)c1 (stereo not given)	inactive: -0.46%
Cc1nc2ccc3ccccc3c2o1.O=[N+]([O-])c1cc([N+](=O)[O-])c(O)c([N+](=O)[O-])c1	inactive: 6.67%

Reference: PubChem BioAssay AID793 (The Scripps Research Institute Molecular Screening Center, 2007)
